The record followed here is patent US4273704A, “N-Adamantane-substituted tetrapeptide amides” (G. D. Searle & Co., priority 1979, dated 1981).

In this test the test system is opiate receptor sites. The conditions noted are these: in the absence of sodium ion; guinea pig brain membrane fraction; 3H-naloxone 2.5 nM.

As to `CN1CC[C@]23c4c5ccc(O)c4O[C@H]2[C@@H](O)C=C[C@H]3[C@H]1C5` [morphine], the “ID50 concentration of the drug inhibiting 3H-naloxone binding” value is recorded as 7.4×10^-7.
